# Experimental data published in patent US6790824B1, “Cytokines having neurotrophic activity” (Biopharm Gesellschaft zur biotechnologischen Entwicklung …, priority 1997, dated 2004).
# System: embryonic chicken dorsal root ganglia (DRG) neurons
# Test: Survival of dissociated embryonic chick dorsal root ganglia (DRG) neurons, 48 h, counting of surviving neurons
# Assay type: cell-based
# Experimental: Dissociated cultures of embryonic chicken dorsal root ganglia (DRG) were generated as described in details by Krieglstein and Unsicker (Neurochem. Res., 21(7) (1996) 843-850). Briefly, DRGs from white Leghorn chick embryos (day 8) were dissected in Ca^2+-Mg^2+ free Hanks' balanced salt solution. After incubation in 0.08% trypsin for 15 min ganglia were dissociated by trituration. Cells were seeded in polyomithin-laminin coated 96-well microtiter plates (A/2 Costar) at a density of 1,200 cells/well. Growth factors were applied at the time of plating in a final volume of […] Dulbecco's Modified Eagle's Medium supplemented with 0.25% bovine serum albumin, N1 additives and 100 U/ml penicillin. As a positive control, nerve growth factor (NGF) was used at the saturating concentration of 5 ng/ml. After 48 h of incubation at 37° C. in a humidified atmosphere containing 5% CO2, cultures were fixed with 2.5% glutaraldehyde. Neuronal cells were identified by their phase-bright and neurite-bearing morphologies and counted within 30% of the total surface area using phase contrast microscopy. […]
# At appropriate times (CG: 24 h, DRG: 48 h, SG: 72 h) cultures were fixed by addition of 2.5% glutardialdehyde in phosphate buffered saline (PBS). Numbers of surviving neurons were determined by direct counting of 30% of the surface area using phase contrast microscopy. […]
molecule,measurement,setting,value
"BMP-2: rh BMP-2, bone morphogenetic protein (protein, UniProt P12643 283-396, looked up) Bone morphogenetic protein 2: QAKHKQRKRLKSSCKRHPLYVDFSDVGWNDWIVAPPGYHAFYCHGECPFPLADHLNSTNHAIVQTLVNSVNSKIPKACCVPTELSAISMLYLDENEKVVLKNYQDMVVEGCGCR",survival promoting effect of the single factor,"E8 chick DRG, 48 h, factor added alone, dose-response",significant effect
same,survival of DRG neurons in combination with NT-3,"NT-3 10 ng/ml (saturating), E8, 48 h",significantly augmented the promoting effect of NT-3
